Experimental data taken from US20240350650A1, “LINKER AND CONJUGATE THEREFOR” (BEIJING HOPE PHARMACEUTICAL CO.LTD., priority 2021, published 2024).

Key:
[1] = test system: human breast cancer BT474 model; test: In vivo tumor inhibition, subcutaneous xenograft in mice; parameters: species or system Mus Musculus; conditions: single tail vein dose, Herceptin 10 mg/kg, Tr-1b 5, 10, 15 mg/kg, FIG. 12
Protocol: Mice: female nude mice of 6-9 weeks old (species: Mus Musculus, CB-17 SCID; SpePharm (Beijing) Biotechnology Co., Ltd.) for experiments.
(§1) Measurement and calculation of tumor volume:
(§2) The tumor volume (mm^3) was calculated by measuring the long diameter and short diameter of the tumor twice a week with calipers.
Calculation formula: tumor volume (mm^3)=0.52×length diameter (mm)×[short diameter (mm)]^2

NCI-N87 cells = test: Endocytosis test (fluorescence density, endocytosis rate); assay type: cell-based, human
SK-BR-3 cells = test: as above; assay type: cell-based, human
[2] = test system: human gastric cancer cell NCI-N87 model; test: In vivo tumor inhibition, subcutaneous xenograft in nude mice; parameters: species or system Mus Musculus; conditions: single tail vein dose, Herceptin 10 mg/kg, Tr-1b 1, 2, 4 mg/kg, FIG. 11
Protocol: Mice: female nude mice of 6-8 weeks old (species: Mus Musculus, BALB/c nude; SpePharm (Beijing) Biotechnology Co., Ltd.) for experiments.
as §1, §2

NCI-N87 = test: Cell proliferation inhibition test (CTG, 6 days); assay type: cell-based, human; conditions: 6 days after dosing
Protocol: (§3) Test samples: Ab1: DS-8201 (Enhertu, fam-trastuzumab deruxtecan-nxki); Ab2: antibody-drug conjugate Tr-1b.
(§4) Viability assay: The resuscitated cells were cultured for 6 days after dosing, cell proliferation results were detected, and IC50 values were calculated. […]
(§5) The data were analyzed using software GraphPad Prism 7.0, and fitted by the nonlinear S-curve regression to obtain a dose-effect curve, based on which the IC50 value was calculated.

SK-BR-3 = test: Cell proliferation inhibition test (CTG, 6 days); assay type: cell-based, human; conditions: 6 days after dosing
Protocol: as §3, §4, §5

IC50 (ng/ml) SK-BR-3 (SK-BR-3): 30.51 ng/mL
Substance: trastuzumab [Herceptin]
tumor inhibition effect (tumor volume, in words) [1]: inhibitory effect against tumor proliferation | fluorescence density for endocytosis, 37° C. 0 h (NCI-N87 cells; 37° C. 0 h): 23.7 | Endocytosis rate (%) 37° C. 0.5 h (NCI-N87 cells; 37° C. 0.5 h): 2.34% | fluorescence density for endocytosis, 37° C. 0.5 h (NCI-N87 cells; 37° C. 0.5 h): 41.3 | Endocytosis rate (%) 37° C. 1 h (NCI-N87 cells; 37° C. 1 h): 8.39% | fluorescence density for endocytosis, 37° C. 1 h (NCI-N87 cells; 37° C. 1 h): 86.8 | Endocytosis rate (%) 37° C. 2 h (NCI-N87 cells; 37° C. 2 h): 9.34% | fluorescence density for endocytosis, Binding Control Group (NCI-N87 cells; binding control group): 763 | fluorescence density for endocytosis, 37° C. 0 h (SK-BR-3 cells; 37° C. 0 h): 12.7 | Endocytosis rate (%) 37° C. 0.5 h (SK-BR-3 cells; 37° C. 0.5 h): 3.74% | fluorescence density for endocytosis, 37° C. 0.5 h (SK-BR-3 cells; 37° C. 0.5 h): 26.3 | Endocytosis rate (%) 37° C. 1 h (SK-BR-3 cells; 37° C. 1 h): 6.37% | fluorescence density for endocytosis, 37° C. 1 h (SK-BR-3 cells; 37° C. 1 h): 35.9 | Endocytosis rate (%) 37° C. 2 h (SK-BR-3 cells; 37° C. 2 h): 23.71% | fluorescence density for endocytosis, Binding Control Group (SK-BR-3 cells; binding control group): 384 | tumor inhibition effect (tumor volume, in words) [2]: inhibitory effect against tumor proliferation | IC50 (ng/ml) NCI-N87 (NCI-N87): 30.96 ng/mL
